By UniProt entry, the sequences of proteins in these tests, tags left out. Where a name states a change or a piece, a line headed by the entry shows the natural chain unless it says otherwise.
UniProt P22303: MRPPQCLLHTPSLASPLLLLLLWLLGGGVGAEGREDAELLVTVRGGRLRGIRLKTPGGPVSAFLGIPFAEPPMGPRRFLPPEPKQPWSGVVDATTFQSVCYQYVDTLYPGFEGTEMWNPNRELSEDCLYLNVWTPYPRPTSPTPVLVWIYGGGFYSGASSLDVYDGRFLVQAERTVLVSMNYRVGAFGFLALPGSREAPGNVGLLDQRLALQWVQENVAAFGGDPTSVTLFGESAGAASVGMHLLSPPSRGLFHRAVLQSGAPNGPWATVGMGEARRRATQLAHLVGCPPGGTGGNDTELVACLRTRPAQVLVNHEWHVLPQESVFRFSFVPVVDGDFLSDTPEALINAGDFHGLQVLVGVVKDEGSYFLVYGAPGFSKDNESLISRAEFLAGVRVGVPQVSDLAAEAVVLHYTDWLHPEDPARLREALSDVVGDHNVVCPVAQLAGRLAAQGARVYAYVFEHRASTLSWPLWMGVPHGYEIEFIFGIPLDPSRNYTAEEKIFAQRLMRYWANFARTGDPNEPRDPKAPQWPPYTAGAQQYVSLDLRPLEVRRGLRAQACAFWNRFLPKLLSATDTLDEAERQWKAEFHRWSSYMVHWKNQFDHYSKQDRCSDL

In ChEMBL document CHEMBL1134461, “Hexahydrochromeno[4,3-b]pyrrole derivatives as acetylcholinesterase inhibitors” (J Med Chem, 2001):

Target: Acetylcholinesterase (Homo sapiens, UniProt P22303)

For `CNC(=O)Oc1ccc2c(c1)[C@]1(C)CCN(C)[C@@H]1N2C`, the k3 was 9 min⁻¹.
